Results from publication PMC9097471, “Development of Selective Phosphatidylinositol 5-Phosphate 4-Kinase γ Inhibitors with a Non-ATP-competitive, Allosteric Binding Mode” (Journal of Medicinal Chemistry, 2022).

Legend:
[1] = molecular target: T1, PI5P4Kα-WT (Homo sapiens, UniProt P48426); assay: ADP-Glo inhibition assay
T1 sequence (P48426 1-406): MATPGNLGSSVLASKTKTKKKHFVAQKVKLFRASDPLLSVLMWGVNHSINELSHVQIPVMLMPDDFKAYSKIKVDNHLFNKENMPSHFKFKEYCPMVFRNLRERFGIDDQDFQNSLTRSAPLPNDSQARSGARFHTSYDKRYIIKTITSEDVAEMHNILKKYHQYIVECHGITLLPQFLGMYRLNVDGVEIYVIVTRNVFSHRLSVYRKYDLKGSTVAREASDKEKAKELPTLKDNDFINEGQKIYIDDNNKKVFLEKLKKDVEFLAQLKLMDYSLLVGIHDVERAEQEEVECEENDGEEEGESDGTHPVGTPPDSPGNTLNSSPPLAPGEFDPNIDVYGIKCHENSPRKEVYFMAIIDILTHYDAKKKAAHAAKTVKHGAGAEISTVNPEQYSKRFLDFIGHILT

[2] = molecular target: T2, PI5P4Kβ-WT (Homo sapiens, UniProt P78356); assay: ADP-Glo inhibition assay
T2 sequence (P78356 1-416): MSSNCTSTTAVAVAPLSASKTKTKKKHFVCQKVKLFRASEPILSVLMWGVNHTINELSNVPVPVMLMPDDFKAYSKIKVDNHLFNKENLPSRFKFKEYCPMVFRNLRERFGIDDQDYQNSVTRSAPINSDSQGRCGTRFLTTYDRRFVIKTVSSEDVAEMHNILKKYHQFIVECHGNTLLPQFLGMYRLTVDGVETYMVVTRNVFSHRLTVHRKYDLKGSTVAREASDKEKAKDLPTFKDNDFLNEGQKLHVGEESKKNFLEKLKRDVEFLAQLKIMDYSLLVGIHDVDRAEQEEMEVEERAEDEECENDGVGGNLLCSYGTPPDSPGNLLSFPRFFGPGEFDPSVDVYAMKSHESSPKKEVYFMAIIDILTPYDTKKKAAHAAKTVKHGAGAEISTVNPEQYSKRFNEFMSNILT

CN(C)C/C=C/C(=O)Nc1ccc(C(=O)Nc2cccc(Nc3cc(-c4c[nH]c5ccccc45)ncn3)c2)cc1 [Compound 3, THZ-P1-2, reference compound]
IC50 [1]: 0.13 µM | IC50 [2]: 1 µM
